Legend:
[1] = target: Adenosine receptor A2a (Homo sapiens, UniProt P29274); experiment: biochemical
[2] = target: T1, Adenosine receptor A2b (Homo sapiens, UniProt P29275); experiment: Inhibition of adenosine A2B receptor
T1 sequence (P29275 whole entry): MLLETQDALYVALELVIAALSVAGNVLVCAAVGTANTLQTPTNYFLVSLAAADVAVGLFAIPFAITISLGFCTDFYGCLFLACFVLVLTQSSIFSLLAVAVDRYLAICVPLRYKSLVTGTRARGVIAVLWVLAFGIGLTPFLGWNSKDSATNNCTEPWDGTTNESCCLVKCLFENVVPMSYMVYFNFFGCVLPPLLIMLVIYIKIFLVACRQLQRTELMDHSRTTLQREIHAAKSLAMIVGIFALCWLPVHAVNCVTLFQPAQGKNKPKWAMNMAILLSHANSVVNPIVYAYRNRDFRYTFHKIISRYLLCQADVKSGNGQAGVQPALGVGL

Sequences of proteins named here, by UniProt entry; tags and fusion partners are left off.
UniProt P30542, whole entry: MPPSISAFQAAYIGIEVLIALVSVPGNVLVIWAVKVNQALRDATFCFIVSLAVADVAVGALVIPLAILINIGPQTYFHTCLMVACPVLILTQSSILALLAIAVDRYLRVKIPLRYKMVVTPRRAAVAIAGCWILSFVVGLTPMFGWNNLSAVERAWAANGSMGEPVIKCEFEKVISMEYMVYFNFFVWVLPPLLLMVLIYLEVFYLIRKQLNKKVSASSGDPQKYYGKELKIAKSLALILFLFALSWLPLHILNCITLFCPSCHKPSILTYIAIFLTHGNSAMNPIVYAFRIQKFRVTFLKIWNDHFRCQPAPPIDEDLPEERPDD

[3] = tested on: Liver microsomes; conditions: rat, 1 µM
[4] = tested on: Plasma; conditions: rat, 6 h, 10 µM
[5] = AUC (infinity) in rat at 2 mg/kg, po; assay type: ADME, organism-based; parameters: time infinity, dose 2 mg/kg, route oral; conditions: plasma
[6] = target: Adenosine receptor A1 (Homo sapiens, UniProt P30542); experiment: biochemical

With `Nc1nnc(-c2ccccc2)c(-c2ccccc2)n1` the Ki [1] was 0.117 µM.

`Cc1cc(-c2nnc(N)nc2-c2ccccc2)cc(C)c1O` showed a Ki [1] of 0.00407 µM.

Work on `Nc1nnc(-c2cc(Cl)cc(Cl)c2)c(-c2ccccc2)n1` yielded a Ki [2] of 0.0398 µM.

Compound `Cc1cc(-c2nnc(N)nc2-c2ccc(F)cc2)cc(C)n1` has a t1/2 [3] of 1.67 h and a PPB [4] of 69%.

In the case of `Cc1cc(-c2nnc(N)nc2-c2cccc(F)c2)cc(C)n1`, the Ki [1] is reported as 0.0105 µM.

In the case of `Cc1cc(-c2nnc(N)nc2-c2ccccc2)cc(C(F)(F)F)n1`, the AUC(0-inf) [5] is reported as 0.846 µg·h/mL, the Ki [1] is reported as 0.00347 µM and the Ki [6] is reported as 0.0316 µM.
